Test results: patent US20230355617A1, “SMALL MOLECULE INHIBITORS OF LEMUR TYROSINE KINASE 3” (The University of Sussex, priority 2020, published 2023)
pIC50: −log10 of the molar value.

Amino acid sequences for entries named in this document (tags omitted). Residues count along the entry.
UniProt Q96Q04, 105-415 limits assumed: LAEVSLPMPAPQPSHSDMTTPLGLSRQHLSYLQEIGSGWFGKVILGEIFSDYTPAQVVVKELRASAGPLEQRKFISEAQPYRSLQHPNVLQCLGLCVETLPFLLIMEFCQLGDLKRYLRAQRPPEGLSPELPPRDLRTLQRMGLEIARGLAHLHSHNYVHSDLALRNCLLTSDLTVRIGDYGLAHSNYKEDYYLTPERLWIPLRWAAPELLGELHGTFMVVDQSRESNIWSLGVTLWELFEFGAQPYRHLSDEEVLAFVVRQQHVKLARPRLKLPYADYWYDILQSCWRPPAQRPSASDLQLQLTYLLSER
UniProt Q96Q04, 21-1460 limits assumed: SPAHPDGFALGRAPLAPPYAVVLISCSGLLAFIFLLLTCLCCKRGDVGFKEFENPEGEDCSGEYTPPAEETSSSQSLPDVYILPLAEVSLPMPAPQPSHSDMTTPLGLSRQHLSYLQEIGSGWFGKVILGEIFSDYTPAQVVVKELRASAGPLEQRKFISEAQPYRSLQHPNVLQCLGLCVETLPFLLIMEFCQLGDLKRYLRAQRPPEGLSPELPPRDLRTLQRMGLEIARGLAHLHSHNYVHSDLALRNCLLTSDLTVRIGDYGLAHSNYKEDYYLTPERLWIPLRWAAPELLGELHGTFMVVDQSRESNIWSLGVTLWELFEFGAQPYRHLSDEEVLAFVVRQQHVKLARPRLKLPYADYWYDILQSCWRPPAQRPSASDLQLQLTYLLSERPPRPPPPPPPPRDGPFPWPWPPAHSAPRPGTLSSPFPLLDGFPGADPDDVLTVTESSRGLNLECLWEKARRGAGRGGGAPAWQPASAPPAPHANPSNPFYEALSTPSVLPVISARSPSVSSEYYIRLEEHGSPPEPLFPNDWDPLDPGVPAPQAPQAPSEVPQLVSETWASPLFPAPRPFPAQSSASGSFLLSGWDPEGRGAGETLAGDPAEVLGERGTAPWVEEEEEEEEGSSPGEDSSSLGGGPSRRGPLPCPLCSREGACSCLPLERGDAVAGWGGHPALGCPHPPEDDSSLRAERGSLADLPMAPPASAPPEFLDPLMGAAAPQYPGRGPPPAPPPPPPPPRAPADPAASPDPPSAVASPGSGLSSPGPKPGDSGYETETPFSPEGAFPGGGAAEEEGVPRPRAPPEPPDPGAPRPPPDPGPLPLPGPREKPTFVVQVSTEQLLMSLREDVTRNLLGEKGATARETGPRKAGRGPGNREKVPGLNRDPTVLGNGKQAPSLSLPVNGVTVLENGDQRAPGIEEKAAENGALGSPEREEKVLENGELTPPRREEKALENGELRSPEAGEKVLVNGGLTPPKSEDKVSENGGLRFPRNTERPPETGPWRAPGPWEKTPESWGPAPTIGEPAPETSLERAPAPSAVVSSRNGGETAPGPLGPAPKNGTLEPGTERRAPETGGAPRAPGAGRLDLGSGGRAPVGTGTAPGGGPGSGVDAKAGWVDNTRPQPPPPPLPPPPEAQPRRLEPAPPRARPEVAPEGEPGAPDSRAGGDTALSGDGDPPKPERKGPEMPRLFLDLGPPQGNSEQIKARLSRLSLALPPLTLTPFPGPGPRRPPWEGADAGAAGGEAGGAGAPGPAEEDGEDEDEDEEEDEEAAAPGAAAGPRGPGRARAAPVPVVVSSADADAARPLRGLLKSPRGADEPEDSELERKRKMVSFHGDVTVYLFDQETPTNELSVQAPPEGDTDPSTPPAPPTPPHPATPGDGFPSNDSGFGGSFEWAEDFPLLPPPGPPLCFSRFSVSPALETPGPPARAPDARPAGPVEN

Assays:
[1] = Mouse microsomal stability assay; details: mouse microsomes
LMTK3 [2] = target: T1, LMTK3 (Homo sapiens, UniProt Q96Q04); assay: 32P γ-ATP in vitro kinase assay, phosphorylation of HSP27 by LMTK3; format: biochemical
LMTK3 [3] = target: T1, LMTK3; assay: Western blotting of LMTK3 protein in BC cell lines; format: cell-based; details: MCF7, T47D, MDA-MB-231
ERα = assay: Western blotting of ERα protein in BC cell lines; format: cell-based, human; details: MCF7, T47D, MDA-MB-231

Cc1cc(-c2ccc3ncc(-c4cccc(OC(F)(F)F)c4)n3n2)cc(C)n1
clearance [1]: medium clearance
relative inhibition in the in vitro kinase assay (LMTK3 [2]; 500 nM and 1 μM): best inhibitor
pIC50 (LMTK3 [2]; read-out: Approximate IC50, in vitro kinase assay): 6.46
inhibition of LMTK3 protein levels in cancer cell lines (LMTK3 [3]): best inhibitor
inhibition of ERα protein levels in cancer cell lines (ERα): best inhibitor
